# Test system: all cells tested
# Details: concentrations used stated to be below LD50
structure (smiles),measurement,value
CN(CCOc1ccc(CC2SC(=O)NC2=O)cc1)c1ccccn1 (stereo not shown) [rosiglitazone],LD50,> 20 µM

# Source: patent US20090202513A1, “RIBONUCLEASE AND THIAZOLIDINEDIONE COMPOUNDS AND THEIR USE IN METHODS TO TREAT CANCER” (The University of Vermont and State Agriculture College, priority 2008, published 2009)
